System: Nucleic Acid
Test: Ratio of drug level in blood to plasma in iv dosed human
Format: ADME, organism-based
Settings: in vivo

- Rblood_plasma: 0.55
SMILES: COc1ccc2cc([C@H](C)C(=O)O)ccc2c1 [NAPROXEN]

Reference: ChEMBL document CHEMBL3526103, “Prediction of in vivo hepatic clearance and half-life of drug candidates in human using chimeric mice with humanized liver” (Drug Metab Dispos, 2012)
